# Like-named read-outs stand apart in the source and are kept apart here.
# Test system: metastatic hormone-sensitive prostate cancer (mHSPC)
# Conditions: for median OS / median time to CRPC: in combination with ADT; for median time to CRPC: indexed from metastatic diagnosis
# [1] = SPOP-mutated vs wild-type SPOP patients, Cox model adjusted for PSA and ECOG
# [2] = patients with SPOP mutations, mHSPC
compound,measurement,setting,value
CC(=O)O[C@@]12CO[C@@H]1C[C@H](O)[C@@]1(C)C(=O)[C@H](O)C3=C(C)[C@@H](OC(=O)[C@H](O)[C@@H](NC(=O)OC(C)(C)C)c4ccccc4)C[C@@](O)([C@@H](OC(=O)c4ccccc4)[C@H]21)C3(C)C [docetaxel],"HR, overall survival",[1],1.46
same,"adjusted hazard ratio [HR], time to CRPC",[1],0.81
same,"time to CRPC and OS, SPOP-mutated compared with wild-type SPOP patients (in words)","mHSPC, FIGS. 2A-2D",No significant difference
same,"time to CRPC and OS, TMPRSS2-ERG fusion positive compared with fusion negative patients (in words)","mHSPC, FIGS. 3A-3D",better time to CRPC and OS
same,median OS,[2],26.9 months
same,median time to CRPC,[2],18.5 months
same,median OS,"wild-type SPOP patients, mHSPC",33.5 months
same,median time to CRPC,"wild-type SPOP patients, mHSPC",15.7 months
